Experimental findings from the supplement of paper PMC5998384 are described below.

Data set [1] has as its system HeLa Kyoto. Briefly: solubility in G1/S (NP-40 vs SDS abundance) (log2 ratio); higher = more soluble. The note with it: cell cycle stage: G1/S.
Data set [2] concerns HeLa Kyoto. Briefly: melting temperature (median over replicates), in situ; higher = more thermally stable.
Data set [3] relates to HeLa Kyoto. Briefly: thermal stability score vs G1/S (z-score of summed log2 fold changes over temperatures); higher = more thermally stable than in G1/S.
Data set [4] concerns HeLa Kyoto. Briefly: solubility change mitosis vs G1/S (difference of NP-40 vs SDS log2 ratios) (log2 ratio difference); higher = more soluble in mitosis.
The mark [5] stands for this setting: cell cycle stage: early G1 (4.5 h after nocodazole release).
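Wherever melting temperature (median over replicates), in situ is given: HeLa Kyoto cells synchronized by double thymidine or nocodazole block, proteins quantified by TMT10plex mass spectrometry, three independent biological replicates.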
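Wherever solubility change mitosis vs G1/S (difference of NP-40 vs SDS log2 ratios) is given: synchronized HeLa Kyoto cells (double thymidine block for G1/S, nocodazole release for mitosis), protein amounts in NP-40 versus SDS lysates quantified by mass spectrometry, three biological replicates.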
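Wherever solubility in G1/S (NP-40 vs SDS abundance) is given: HeLa Kyoto cells arrested at G1/S by double thymidine block, proteins quantified by TMT10plex mass spectrometry in mild NP-40 versus SDS extracts, three biological replicates.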
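Wherever thermal stability score vs G1/S (z-score of summed log2 fold changes over temperatures) is given: synchronized HeLa Kyoto cells, proteins quantified by TMT10plex mass spectrometry, three biological replicates, mitosis taken 0.5 h after nocodazole release, G1/S directly after double thymidine block.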

As for “MAAAAAAAAATNGTGGSSGMEVDAAVVPSVMACGVTGSVSVALHPLVILNISDHWIRMRSQEGRPVQVIGALIGKQEGRNIEVMNSFELLSHTVEEKIIIDKEYYYTKEEQFKQVFKELEFLGWYTTGGPPDPSDIHVHKQVCEIIESPLFLKLNPMTKHTDLPVSVFESVIDIINGEATMLFAELTYTLATEEAERIGVDHVARMTATGSGENSTVAEHLIAQHSAIKMLHSRVKLILEYVKASEAGEVPFNHEILREAYALCHCLPVLSTDKFKTDFYDQCNDVGLMAYLGTITKTCNTMNQFVNKFNVLYDRQGIGRRMRGLFF [COPS6]”, the “solubility in G1/S (log2)” value with HeLa Kyoto [1] amounted to 0.222. The values for the melting temperature with HeLa Kyoto [2] (cell cycle stage: G1/S) and with HeLa Kyoto [2] (cell cycle stage: mitosis) were 53.4 °C and 53.5 °C, respectively. Moreover, the thermal stability score is 0.373 with HeLa Kyoto [3] (setting [5]) and -0.101 in the data set with HeLa Kyoto [3] (cell cycle stage: mitosis). In addition, the “solubility change mitosis (log2)” value in the data set with HeLa Kyoto [4] was -0.126.

“MAGGVDGPIGIPFPDHSSDILSGLNEQRTQGLLCDVVILVEGREFPTHRSVLAACSQYFKKLFTSGAVVDQQNVYEIDFVSAEALTALMDFAYTATLTVSTANVGDILSAARLLEIPAVSHVCADLLDRQILAADAGADAGQLDLVDQIDQRNLLRAKEYLEFFQSNPMNSLPPAAAAAAASFPWSAFGASDDDLDATKEAVAAAVAAVAAGDCNGLDFYGPGPPAERPPTGDGDEGDSNPGLWPERDEDAPTGGLFPPPVAPPAATQNGHYGRGGEEEAASLSEAAPEPGDSPGFLSGAAEGEDGDGPDVDGLAASTLLQQMMSSVGRAGAAAGDSDEESRADDKGVMDYYLKYFSGAHDGDVYPAWSQKVEKKIRAKAFQKCPICEKVIQGAGKLPRHIRTHTGEKPYECNICKVRFTRQDKLKVHMRKHTGEKPYLCQQCGAAFAHNYDLKNHMRVHTGLRPYQCDSCCKTFVRSDHLHRHLKKDGCNGVPSRRGRKPRVRGGAPDPSPGATATPGAPAQPSSPDARRNGQEKHFKDEDEDEDVASPDGLGRLNVAGAGGGGDSGGGPGAATDGNFTAGLA [ZBTB7A]”: in the data set on HeLa Kyoto [1], the “solubility in G1/S (log2)” value is -0.00404. Further, the melting temperature is 50.7 °C in the data set on HeLa Kyoto [2] (cell cycle stage: G1/S) and 53.3 °C in the data set with HeLa Kyoto [2] (cell cycle stage: mitosis). Moreover, the thermal stability score in the data set on HeLa Kyoto [3] (setting [5]) was determined as 1.55; in the data set on HeLa Kyoto [3] (cell cycle stage: mitosis), 2.56. For the same sequence, in the data set on HeLa Kyoto [4], the “solubility change mitosis (log2)” value worked out at 0.265.

For “MAGRRAQTGSAPPRPAAPHPRPASRAFPQHCRPRDAERPPSPRSPLMPGCELPVGTCPDMCPAAERAQREREHRLHRLEVVPGCRQDPPRADPQRAVKEYSRPAAGKPRPPPSQLRPPSVLLATVRYLAGEVAESADIARAEVASFVADRLRAVLLDLALQGAGDAEAAVVLEAALATLLTVVARLGPDAARGPADPVLLQAQVQEGFGSLRRCYARGAGPHPRQPAFQGLFLLYNLGSVEALHEVLQLPAALRACPPLRKALAVDAAFREGNAARLFRLLQTLPYLPSCAVQCHVGHARREALARFARAFSTPKGQTLPLGFMVNLLALDGLREARDLCQAHGLPLDGEERVVFLRGRYVEEGLPPASTCKVLVESKLRGRTLEEVVMAEEEDEGTDRPGSPA [SAC3D1]”, in the data set with HeLa Kyoto [1], the “solubility in G1/S (log2)” value turned out to be 0.195. In the data set with HeLa Kyoto [2] (cell cycle stage: mitosis), the melting temperature was 50.4 °C. In addition, the thermal stability score worked out at 0.287 in the data set on HeLa Kyoto [3] (setting [5]) and 0.509 with HeLa Kyoto [3] (cell cycle stage: mitosis). Further, in the data set with HeLa Kyoto [4], the “solubility change mitosis (log2)” value is 0.0556.

On to “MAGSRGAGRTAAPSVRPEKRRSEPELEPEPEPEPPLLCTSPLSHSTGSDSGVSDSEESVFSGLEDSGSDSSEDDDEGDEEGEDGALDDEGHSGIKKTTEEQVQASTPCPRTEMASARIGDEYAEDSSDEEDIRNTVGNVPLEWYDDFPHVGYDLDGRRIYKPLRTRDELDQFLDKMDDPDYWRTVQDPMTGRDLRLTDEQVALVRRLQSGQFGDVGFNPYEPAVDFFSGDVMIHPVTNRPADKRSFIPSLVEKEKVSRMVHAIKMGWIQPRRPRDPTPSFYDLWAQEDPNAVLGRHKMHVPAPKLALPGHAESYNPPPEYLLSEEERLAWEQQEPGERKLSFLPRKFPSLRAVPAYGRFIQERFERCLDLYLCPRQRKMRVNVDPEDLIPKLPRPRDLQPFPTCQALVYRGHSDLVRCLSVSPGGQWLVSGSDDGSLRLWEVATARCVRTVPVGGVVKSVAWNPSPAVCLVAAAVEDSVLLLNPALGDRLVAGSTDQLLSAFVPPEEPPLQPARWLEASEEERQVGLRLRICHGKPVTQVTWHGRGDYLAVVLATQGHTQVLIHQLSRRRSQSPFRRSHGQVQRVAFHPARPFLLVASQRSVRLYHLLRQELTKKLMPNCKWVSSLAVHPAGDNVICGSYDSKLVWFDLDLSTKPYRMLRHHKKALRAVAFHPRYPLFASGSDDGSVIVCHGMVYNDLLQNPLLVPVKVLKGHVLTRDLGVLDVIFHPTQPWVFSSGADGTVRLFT [BOP1]”, for which the “solubility in G1/S (log2)” value in the data set on HeLa Kyoto [1] was -1.33. Also, the melting temperature with HeLa Kyoto [2] (cell cycle stage: G1/S) came out at 48.2 °C; in the data set with HeLa Kyoto [2] (cell cycle stage: mitosis) it was 50 °C. For the same sequence, the thermal stability score in the data set on HeLa Kyoto [3] (setting [5]) came out at 0.929; with HeLa Kyoto [3] (cell cycle stage: mitosis), 2.45. In addition, in the data set on HeLa Kyoto [4], the “solubility change mitosis (log2)” value came out at 0.79.

Consider “MASAARLTMMWEEVTCPICLDPFVEPVSIECGHSFCQECISQVGKGGGSVCPVCRQRFLLKNLRPNRQLANMVNNLKEISQEAREGTQGERCAVHGERLHLFCEKDGKALCWVCAQSRKHRDHAMVPLEEAAQEYQEKLQVALGELRRKQELAEKLEVEIAIKRADWKKTVETQKSRIHAEFVQQKNFLVEEEQRQLQELEKDEREQLRILGEKEAKLAQQSQALQELISELDRRCHSSALELLQEVIIVLERSESWNLKDLDITSPELRSVCHVPGLKKMLRTCAVHITLDPDTANPWLILSEDRRQVRLGDTQQSIPGNEERFDSYPMVLGAQHFHSGKHYWEVDVTGKEAWDLGVCRDSVRRKGHFLLSSKSGFWTIWLWNKQKYEAGTYPQTPLHLQVPPCQVGIFLDYEAGMVSFYNITDHGSLIYSFSECAFTGPLRPFFSPGFNDGGKNTAPLTLCPLNIGSQGSTDY [TRIM21]”, for which the “solubility in G1/S (log2)” value in the data set on HeLa Kyoto [1] worked out at 0.134. Also, the melting temperature turned out to be 50.5 °C with HeLa Kyoto [2] (cell cycle stage: G1/S) and 50.8 °C in the data set with HeLa Kyoto [2] (cell cycle stage: mitosis). Besides, the thermal stability score with HeLa Kyoto [3] (setting [5]) was -2.64; in the data set with HeLa Kyoto [3] (cell cycle stage: mitosis) it was -1.49. Besides, in the data set on HeLa Kyoto [4], the “solubility change mitosis (log2)” value was -0.198.

With “MDEDVLTTLKILIIGESGVGKSSLLLRFTDDTFDPELAATIGVDFKVKTISVDGNKAKLAIWDTAGQERFRTLTPSYYRGAQGVILVYDVTRRDTFVKLDNWLNELETYCTRNDIVNMLVGNKIDKENREVDRNEGLKFARKHSMLFIEASAKTCDGVQCAFEELVEKIIQTPGLWESENQNKGVKLSHREEGQGGGACGGYCSVL [RAB18]”, in the data set on HeLa Kyoto [1], the “solubility in G1/S (log2)” value was -0.0437. In addition, the melting temperature worked out at 56.8 °C in the data set with HeLa Kyoto [2] (cell cycle stage: G1/S) and 56.7 °C with HeLa Kyoto [2] (cell cycle stage: mitosis). Further, the thermal stability score in the data set with HeLa Kyoto [3] (setting [5]) is -1.6; with HeLa Kyoto [3] (cell cycle stage: mitosis) it was -1.78. The “solubility change mitosis (log2)” value with HeLa Kyoto [4] was -0.12.

“MEAENAGSYSLQQAQAFYTFPFQQLMAEAPNMAVVNEQQMPEEVPAPAPAQEPVQEAPKGRKRKPRTTEPKQPVEPKKPVESKKSGKSAKSKEKQEKITDTFKVKRKVDRFNGVSEAELLTKTLPDILTFNLDIVIIGINPGLMAAYKGHHYPGPGNHFWKCLFMSGLSEVQLNHMDDHTLPGKYGIGFTNMVERTTPGSKDLSSKEFREGGRILVQKLQKYQPRIAVFNGKCIYEIFSKEVFGVKVKNLEFGLQPHKIPDTETLCYVMPSSSARCAQFPRAQDKVHYYIKLKDLRDQLKGIERNMDVQEVQYTFDLQLAQEDAKKMAVKEEKYDPGYEAAYGGAYGENPCSSEPCGFSSNGLIESVELRGESAFSGIPNGQWMTQSFTDQIPSFSNHCGTQEQEEESHA [TDG]”: the “solubility in G1/S (log2)” value in the data set with HeLa Kyoto [1] was found to be 0.143. Further, in the data set with HeLa Kyoto [4], the “solubility change mitosis (log2)” value was -0.153.

The sequence “MEELEQGLLMQPWAWLQLAENSLLAKVFITKQGYALLVSDLQQVWHEQVDTSVVSQRAKELNKRLTAPPAAFLCHLDNLLRPLLKDAAHPSEATFSCDCVADALILRVRSELSGLPFYWNFHCMLASPSLVSQHLIRPLMGMSLALQCQVRELATLLHMKDLEIQDYQESGATLIRDRLKTEPFEENSFLEQFMIEKLPEACSIGDGKPFVMNLQDLYMAVTTQEVQVGQKHQGAGDPHTSNSASLQGIDSQCVNQPEQLVSSAPTLSAPEKESTGTSGPLQRPQLSKVKRKKPRGLFS [NHEJ1]” returned a melting temperature with HeLa Kyoto [2] (cell cycle stage: mitosis) of 54.7 °C.

For “MGCTLSAEERAALERSKAIEKNLKEDGISAAKDVKLLLLGAGESGKSTIVKQMKIIHEDGFSGEDVKQYKPVVYSNTIQSLAAIVRAMDTLGIEYGDKERKADAKMVCDVVSRMEDTEPFSAELLSAMMRLWGDSGIQECFNRSREYQLNDSAKYYLDSLDRIGAADYQPTEQDILRTRVKTTGIVETHFTFKNLHFRLFDVGGQRSERKKWIHCFEDVTAIIFCVALSGYDQVLHEDETTNRMHESLMLFDSICNNKFFIDTSIILFLNKKDLFGEKIKKSPLTICFPEYTGPNTYEDAAAYIQAQFESKNRSPNKEIYCHMTCATDTNNIQVVFDAVTDIIIANNLRGCGLY [GNAO1]”, in the data set with HeLa Kyoto [1], the “solubility in G1/S (log2)” value was -0.449. The melting temperature stood at 55.2 °C with HeLa Kyoto [2] (cell cycle stage: G1/S) and 55.5 °C with HeLa Kyoto [2] (cell cycle stage: mitosis). The thermal stability score with HeLa Kyoto [3] (setting [5]) was -1.81; with HeLa Kyoto [3] (cell cycle stage: mitosis), -1.86. Also, the “solubility change mitosis (log2)” value with HeLa Kyoto [4] was -0.188.

For the sequence “MPHSSLHPSIPCPRGHGAQKAALVLLSACLVTLWGLGEPPEHTLRYLVLHLASLQLGLLLNGVCSLAEELRHIHSRYRGSYWRTVRACLGCPLRRGALLLLSIYFYYSLPNAVGPPFTWMLALLGLSQALNILLGLKGLAPAEISAVCEKGNFNVAHGLAWSYYIGYLRLILPELQARIRTYNQHYNNLLRGAVSQRLYILLPLDCGVPDNLSMADPNIRFLDKLPQQTGDHAGIKDRVYSNSIYELLENGQRAGTCVLEYATPLQTLFAMSQYSQAGFSREDRLEQAKLFCRTLEDILADAPESQNNCRLIAYQEPADDSSFSLSQEVLRHLRQEEKEEVTVGSLKTSAVPSTSTMSQEPELLISGMEKPLPLRTDFS [TMEM173]”, the “solubility in G1/S (log2)” value in the data set on HeLa Kyoto [1] is -0.0513. Further, the “solubility change mitosis (log2)” value in the data set on HeLa Kyoto [4] turned out to be 0.0278.

As to “MSVELEEALPVTTAEGMAKKVTKAGGSAALSPSKKRKNSKKKNQPGKYSQLVVETIRRLGERNGSSLAKIYTEAKKVPWFDQQNGRTYLKYSIKALVQNDTLLQVKGTGANGSFKLNRKKLEGGGERRGAPAAATAPAPTAHKAKKAAPGAAGSRRADKKPARGQKPEQRSHKKGAGAKKDKGGKAKKTAAAGGKKVKKAAKPSVPKVPKGRK [H1FX]”, the “solubility in G1/S (log2)” value with HeLa Kyoto [1] is -0.556. The melting temperature with HeLa Kyoto [2] (cell cycle stage: G1/S) was found to be 55.6 °C; in the data set on HeLa Kyoto [2] (cell cycle stage: mitosis) it was 52.7 °C. In addition, the “solubility change mitosis (log2)” value with HeLa Kyoto [4] turned out to be 0.735.

As for “MTDTAEAVPKFEEMFASRFTENDKEYQEYLKRPPESPPIVEEWNSRAGGNQRNRGNRLQDNRQFRGRDNRWGWPSDNRSNQWHGRSWGNNYPQHRQEPYYPQQYGHYGYNQRPPYGYY [FAM103A1]”, the “solubility in G1/S (log2)” value with HeLa Kyoto [1] was -0.192. For the same sequence, the “solubility change mitosis (log2)” value in the data set with HeLa Kyoto [4] came out at 0.551.
